## scFv variants of Ab-14 (light chain) against a SARS-CoV-2 spike peptide

Values reported by Li et al. 2023, doi:10.1038/s41467-023-39022-2 (FLAb copy).

Target peptide (SARS-CoV-2 spike, HR2 region): PDVDLGDISGINAS

Ab-14 is the parent antibody, in scFv form: VH, then a 15-residue (Gly4Ser)3 linker, then VL. The heavy chain is unchanged in all variants.
VH: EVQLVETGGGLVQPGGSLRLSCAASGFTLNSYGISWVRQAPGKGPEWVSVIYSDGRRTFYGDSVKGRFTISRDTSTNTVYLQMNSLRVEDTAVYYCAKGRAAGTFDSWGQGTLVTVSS
VL: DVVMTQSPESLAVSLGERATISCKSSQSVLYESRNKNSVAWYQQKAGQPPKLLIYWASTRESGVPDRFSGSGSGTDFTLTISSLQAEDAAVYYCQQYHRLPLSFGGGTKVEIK

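The starting antibody came from a phage panning campaign against this peptide. This is the validation round: designs drawn from the data on random variants, tested in the same kind of assay. Group labels follow the data file (Ctrl: baseline library sampled from a position-specific scoring matrix, with some repeated check sequences; Rand: our label for a block that the file lists under HC and that is probably the random mutants of the ten best first-round binders; En: ensemble of fine-tuned language models; GP: Gaussian process model; HC: hill climbing; Gen: genetic algorithm; Gibbs: Gibbs sampling; a sequence that several methods proposed may carry one label only). The assay is AlphaSeq: two haploid yeast populations carry antibody and antigen on their surface. After mating in shaken culture at 30 °C for 16 h, diploids were selected and their barcode pairs sequenced. Scores were corrected for input abundance and mapped to Kd with protein pairs of known affinity run in the same pool. Mating was done six times.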

The parent's light chain CDRs are KSSQSVLYESRNKNSVA, WASTRES, QQYHRLPLS; each variant's own CDRs replace them letter for letter.
Values are log10 of the apparent Kd in nM; lower means stronger binding.
A mean of the replicates is given; it leaves out those without a signal.
Where no diploid with the target was found in any replicate, the entry reads "no signal": below detection, most likely a poor binder, though not proof of it.
Entries are sorted by rising average, undetected variants last.
The authors' rule: three or more of the six replicates give a measured affinity, fewer mean a poor binder.
Nonspecific signal, from three strains lacking the peptide, appeared in 4% of pairings of all light chain designs, centred on 2.64 (5% of these signals below 1.59); values are not corrected for it. The control count says in how many pairings with the empty strains this scFv gave a signal.
Of ten entries with the parent sequence, four were seen in most replicates (averages 0.34 to 2.37), three in one and three in none, so single entries are noisy.
Values of this round are not directly comparable with the first-round values of the same sequences.

CDR-L1	CDR-L2	CDR-L3	group	mean log10 Kd (nM)	seen in	signal with controls
KFSQSVLYESRNSNSVA	QASTREP	QQYHRLPLS	Ctrl	-0.46	6/6	0/18
QLPFYRGDGYLQKNNVA	EGTERSH	QQYMRLPLF	En_Gibbs	-0.31	6/6	3/18
KLQQSELYESRNKNSVA	NASKRES	QQYHRLPLS	GP_Gen	-0.24	6/6	1/18
KLSQSVTYESRNKNSVA	NASTRES	QQYHRLPLS	GP_Gen	-0.23	6/6	4/18
KLDQSKLYESRNKNSVA	GASTRES	QQYHRLPLS	GP_HC	-0.23	6/6	0/18
KLLQSVLYESRNFNSVA	HASTRED	QQYHRLPLS	GP_HC	-0.19	6/6	0/18
KLSQSDLYESRNSNSVA	NASTRES	QQYHRLPLS	GP_Gen	-0.16	6/6	1/18
KLPGSTLYESRNKNSVA	NASTRES	QQYHRLPLS	GP_HC	-0.15	6/6	1/18
KLYQSVLYESRNKNSVA	GASTRES	QQYHRLPLS	GP_Gen	-0.13	6/6	0/18
KLSQSDLYESRMKNSVA	NASTREQ	QQYHRLPLS	GP_Gen	-0.08	6/6	2/18
KIQQSVYYEDRNKNSVA	SASTRCP	QQYHRLPLS	GP_Gibbs	-0.05	6/6	2/18
KVSQSYPYESRNKNSVA	NASTRES	QQYHRLPLS	GP_Gen	-0.02	6/6	1/18
QIYQAMHTLSQVKDNVA	DVNERGQ	QQYFRLPLS	En_Gen	0.02	6/6	0/18
KLMQSDLYESRMKNNVA	DASTRME	QQYHRLPLS	GP_Gibbs	0.02	6/6	0/18
MISNVMNTLTHVGNNVA	DLAERED	QQYFRLPLS	En_Gen	0.07	6/6	0/18
KSSQSVLFESRNKNSVA	DASQRES	QQYHRLPLS	GP_HC	0.10	6/6	0/18
KMSQSHLYESRNKNSVA	DASTRES	QQYCRLPLS	Ctrl	0.20	6/6	1/18
HISPSFMVESKLKNSVA	QTETRVE	QQYDRLPLA	En_HC	0.25	6/6	0/18
KQSQHVLYESRNKNSVA	DASTRES	QQYHRLPLS	Rand	0.25	6/6	0/18
KLSMSWPLLWRNHNSVA	SASTRES	QQYHRLPLS	GP_Gibbs	0.27	6/6	1/18
NMFDKDYAFDNNEYNIA	ERTTRGL	QQYSRLPLT	En_Gibbs	0.30	6/6	0/18
KLMQSVLYESRNKNSVA	NASTRCS	QQYHRLPLS	GP_Gen	0.31	6/6	2/18
KMTGGLLDGNREPSNIA	AQDITTQ	QQYNRLPFI	En_Gibbs	0.31	6/6	1/18
AMSEHAFYGQRDENAIA	GADVRAK	QQYWRLPLT	En_Gibbs	0.34	6/6	1/18
KISQSVLYQARNQNSVA	SASTRLH	QQYHRLPLS	GP_Gibbs	0.35	6/6	0/18
KIGMTLNTLSHKQNNVA	DLVYREN	QQYFRLPLS	En_Gen	0.35	6/6	0/18
KLSQSVLYESRDKNSVA	NASTRMS	QQYHRLPLS	GP_Gen	0.36	6/6	1/18
MFPQEVMYESHFKNNVA	QTSTREP	QQYDHLPLS	En_HC	0.38	6/6	3/18
KLEISVLQESRNKNSVA	NASTREV	QQYHRLPLS	GP_Gibbs	0.38	6/6	1/18
KLSREILYESRNKNSVA	WASTRES	QQYSRLPLC	Ctrl	0.39	6/6	2/18
KSSWSFLYESRNKNSVA	EASTRES	QQYHRLPLS	GP_HC	0.39	6/6	2/18
KLGMTLNQLMHKKNNVA	DLVERAN	QQYHRLPLS	En_Gen	0.41	6/6	0/18
KISQMVRVGSTHSNSIA	EEQTRAK	QQYHRLPLS	En_Gen	0.44	6/6	1/18
KLTMITGLEKVSKSNVA	EMETREE	QQYNRLPLS	En_Gen	0.45	6/6	0/18
KLAMALSVEFGTYHGVA	DADHRAK	QQYNRLPLS	En_Gibbs	0.53	6/6	0/18
QLSMITGHQSVSKNNVA	EMETREE	QQYDRLPLS	En_Gen	0.53	6/6	1/18
KLSMVTNQEHKVKNSIA	EMVTREK	QQYDRLPLI	En_HC	0.55	6/6	0/18
SLSRDVGDETNHYENVA	QEHIRAN	QDYSRLPLS	En_Gibbs	0.55	6/6	0/18
QLTMITGHMNVSKNNVA	EMETRMN	QQYDRLPLS	En_Gen	0.57	5/6	1/18
MISQLHNMGTFAINSVA	QASIRNA	QQYDRLPLM	En_Gen	0.58	6/6	0/18
KLEQSVLYESRNKNSIA	WASTRES	QQYHRLPLS	Ctrl	0.68	6/6	1/18
MVNGIMDHLSKQKNNVA	ETETRNS	QQYDRLPLS	En_Gen	0.70	6/6	0/18
VSSQSVLYEDRNKNSVA	WASTRES	QQYHRLPLS	Ctrl	0.73	6/6	0/18
KSMQSVLGESDNKNSVA	AASTRES	QQYHRLPLS	Ctrl	0.74	6/6	3/18
KSSQSVLYESRNKNNVA	DASTRES	QGYHYLPLS	Ctrl	0.78	6/6	1/18
KVSQSVLYESRTKNSVA	NASTRES	QQAHRLPLS	GP_HC	0.79	6/6	2/18
KLMQEMLYESRLANSVA	NASQRLE	QQYHRLPLS	GP_Gibbs	0.80	6/6	1/18
TISQMTSLFSQSINNVA	EVSTREP	QQYDRLPLS	En_Gen	0.84	6/6	2/18
KISQMVRVGSTLSNSIA	EEQTRAK	QQYHRLPLS	En_Gen	0.89	4/6	0/18
KFSQSMLFSSRNKNSVA	WASTRES	QQYHRLPLS	Ctrl	0.90	6/6	0/18
QFDMFEPYQGEQNASIA	GTTNRLT	QQYQKLPLS	En_Gibbs	0.99	6/6	0/18
KLSQSVPTESNNKNSVA	WASTREQ	QQYHRLPLE	Ctrl	1.15	6/6	1/18
KLVQFMNRGTHHTSNIA	DAALRED	QQYYRLPLA	En_Gen	1.17	6/6	3/18
MLSGVLHMLGAKKNSIA	DLVNRAN	QQYHRLPLA	En_Gen	1.26	6/6	0/18
MMSMGSLGGMRARNNVA	QEETREK	QQYHHLPLI	En_HC	1.32	6/6	0/18
KISQTFNVGTKNKNSLA	EMSTREF	QDYHRLPLS	En_HC	1.44	6/6	1/18
KFFQSQLYEQRNQNSVA	SASTRLS	QQYHRLPLS	GP_Gibbs	1.47	6/6	0/18
RMDMALPHAHNNVNSIA	EGAIVAD	QQYDRLPLW	En_Gibbs	1.54	6/6	1/18
KIAATVLYESGAANSVA	QNSTREE	QQYHRLPLS	En_HC	1.74	6/6	0/18
KSTQSVLYESRNKNSVA	WADTRES	QQYHRLPLS	Ctrl	1.93	2/6	0/18
IVSQLMLWGMHVKNSIA	EAETRLN	QQYDRLPLF	En_Gen	1.97	3/6	0/18
KSMQSVTYESRNKNSVA	WASTRES	QQYHRLPLS	Ctrl	1.98	5/6	0/18
KMKQSLEGNPKNWNSVA	EVESAKE	QQYARLPLM	En_Gibbs	2.20	6/6	0/18
SLAMLLNQVYAYGSNIA	NAQVLVY	QQYYRLPLV	En_Gibbs	2.46	1/6	0/18
TIGQTLMIGMRNRSNVA	EVSERLN	QQYDRLPLL	En_Gen	2.52	6/6	1/18
KISMSVTFESYNKNSVA	ENSTRES	QSYHRLPLS	En_HC	2.65	4/6	2/18
KSSESVLYESRNKTSVA	RASTRES	QQYHRLPLS	Ctrl	3.99	1/6	0/18
IVSQLMLWGMHAKNSIA	EAQTRLN	QQYDRLPLQ	En_Gen	no signal	0/6	0/18
KISQSVVWESRNKASVA	SASTREH	QQYHRLMLS	Ctrl	no signal	0/6	0/18
IVSQLMLWGMHVKNSIA	EAVTRLN	QQYERLPLF	En_Gen	no signal	0/6	0/18
KISYNYLIESKNLNSVA	EMTTREY	QDYDRLPLS	En_HC	no signal	0/6	1/18

Picked from the list: the 8 lowest averages where every replicate gave a value.

{"CDR-L1": "KFSQSVLYESRNSNSVA", "CDR-L2": "QASTREP", "CDR-L3": "QQYHRLPLS", "group": "Ctrl", "mean log10 Kd (nM)": "-0.46", "seen in": "6/6", "signal with controls": "0/18"}
{"CDR-L1": "QLPFYRGDGYLQKNNVA", "CDR-L2": "EGTERSH", "CDR-L3": "QQYMRLPLF", "group": "En_Gibbs", "mean log10 Kd (nM)": "-0.31", "seen in": "6/6", "signal with controls": "3/18"}
{"CDR-L1": "KLQQSELYESRNKNSVA", "CDR-L2": "NASKRES", "CDR-L3": "QQYHRLPLS", "group": "GP_Gen", "mean log10 Kd (nM)": "-0.24", "seen in": "6/6", "signal with controls": "1/18"}
{"CDR-L1": "KLSQSVTYESRNKNSVA", "CDR-L2": "NASTRES", "CDR-L3": "QQYHRLPLS", "group": "GP_Gen", "mean log10 Kd (nM)": "-0.23", "seen in": "6/6", "signal with controls": "4/18"}
{"CDR-L1": "KLDQSKLYESRNKNSVA", "CDR-L2": "GASTRES", "CDR-L3": "QQYHRLPLS", "group": "GP_HC", "mean log10 Kd (nM)": "-0.23", "seen in": "6/6", "signal with controls": "0/18"}
{"CDR-L1": "KLLQSVLYESRNFNSVA", "CDR-L2": "HASTRED", "CDR-L3": "QQYHRLPLS", "group": "GP_HC", "mean log10 Kd (nM)": "-0.19", "seen in": "6/6", "signal with controls": "0/18"}
{"CDR-L1": "KLSQSDLYESRNSNSVA", "CDR-L2": "NASTRES", "CDR-L3": "QQYHRLPLS", "group": "GP_Gen", "mean log10 Kd (nM)": "-0.16", "seen in": "6/6", "signal with controls": "1/18"}
{"CDR-L1": "KLPGSTLYESRNKNSVA", "CDR-L2": "NASTRES", "CDR-L3": "QQYHRLPLS", "group": "GP_HC", "mean log10 Kd (nM)": "-0.15", "seen in": "6/6", "signal with controls": "1/18"}